## Binding of CDR-mutated scFvs to a peptide of the spike HR2 region

Data: MIT Lincoln Laboratory AlphaSeq set, Engelhart et al. 2022, doi:10.1038/s41597-022-01779-4, as distributed in FLAb.

The target is the same throughout: PDVDLGDISGINAS, from the HR2 region of SARS-CoV-2 spike.

Parent scFv Ab-14: VH joined to VL by the linker GGGGSGGGGSGGGGS. Changes lie in the heavy chain CDRs alone.
VH: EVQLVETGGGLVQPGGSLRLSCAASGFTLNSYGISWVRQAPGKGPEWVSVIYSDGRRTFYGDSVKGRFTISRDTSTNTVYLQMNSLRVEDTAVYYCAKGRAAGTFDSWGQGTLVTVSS
VL: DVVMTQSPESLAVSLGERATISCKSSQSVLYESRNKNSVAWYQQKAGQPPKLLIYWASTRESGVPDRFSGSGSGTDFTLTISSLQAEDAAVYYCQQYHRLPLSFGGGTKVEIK

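Phage display of a naive human antibody library on the peptide gave the parent. In library AAYL49, one, two or three CDR residues were substituted; doubles and triples were drawn at random. The scFvs were displayed on barcoded MATa yeast, the peptide on MATalpha yeast. After mating in shaken culture at 30 °C for 16 h, diploids were selected and their barcode pairs sequenced. Each replicate has its own calibration line, from reference interactions of the BCL2 family. The assay was run in three technical replicates.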

Variants are written as CDR1, CDR2 and CDR3 of the heavy chain (limits as in the source). Parent: GFTLNSYGIS, VIYSDGRRTFYGDSVK, GRAAGTFDS. Values are log10 of the apparent Kd in nM; lower means stronger binding. "ND" marks a missing value. The strain was present, yet no cells mated with the target were sequenced in that replicate, which points to weak or no binding. In this assay the parent's reference entry averaged 0.65; its copy inside this library read 4.11 (one replicate of three).

CDR-H1,CDR-H2,CDR-H3,"replicates, log10 nM",signal with controls
GFTLNSYGIS,VIYSDGRLTFYGDSVF,GQAAGTFDS,ND ND ND,0/9
GFTLNSYGIS,VIYSDGRRTIYGDGKK,GRAAGTFDS,ND ND 4.32,0/9
LFTLNSYGII,VIYSLGRRTFYGDSVK,GRAAGTFDS,ND ND ND,0/9
GFTLNSYGIS,VIYSDGNRTCYGDSVK,GVAAGTFDS,4.52 2.85 4.61,3/9 (4.07)
GFTCNSYGIS,VIYSDGGRTFYGDSVK,GRAAGTFDA,ND 4.82 ND,1/9 (3.39)
GFTQNSYGIS,VIYSDGRRTFIGDSVK,IRAAGTFDS,ND ND 4.92,3/9 (4.03)
GFTLTSYGIS,VIHSDGRRTFYGDSVK,GRAAGTRDS,4.60 ND ND,3/9 (3.92)
GFTLNSDAIS,QIYSDGRRTFYGDSVK,GRAAGTFDS,ND ND 4.24,1/9 (3.29)
GFTLNSYGIS,VIYSDGRRTFYGDSVI,GRANGTFDG,ND ND ND,0/9
GFTLNSYGIS,VVYSYGRRTFYGDSWK,GRAAGTFDS,ND ND ND,3/9 (4.52)
GFTLNSYGIS,VIYSDGGRTFQGDSVK,GRAFGTFDS,ND ND ND,1/9 (3.73)
GFSLNYYGIS,VIYSDGRRTFYGDSVK,GRAAGTFDS,1.04 1.41 1.57,1/9 (3.43)
GFTLNSYAIS,VIYSDTRRTFYGYSVK,GRAAGTFDS,ND ND ND,0/9
GFTLNSYGIS,VIYSDGRRTFYGNSVQ,GRAAGTFNS,4.29 2.44 2.59,1/9 (2.24)
GFTLNSYGIS,VIYSDHRRTWYGDSVK,GRAAMTFDS,4.69 ND ND,1/9 (3.85)
GFVLNSYGIS,VIYSDGRRTLAGDSVK,GRAAGTFDS,ND 4.06 ND,2/9 (2.93)
GFTLNSYGIS,VIYSDGRRTFYGNSVK,GIAANTFDS,ND ND 3.07,0/9
GFTLNSYGIS,VIYSDGRRTFYGDSQK,GRAFGTFDS,ND 3.32 5.84,1/9 (5.74)
GFTLNSYGIS,VIYSDGRGTFYGDSNK,GRAAGTFDS,4.93 ND ND,2/9 (3.08)
GFTLNKYGIS,DIYSDGRRTFYGDSVK,GRAAGTFDS,3.58 5.16 4.71,4/9 (3.96)
LFTLNSYGIS,VIYSDGRRTFYGDSHL,GRAAGTFDS,4.23 ND ND,0/9
GFTLNSYGIS,VIYSNGRRTFFGDSVE,GRAAGTFDS,ND ND ND,1/9 (3.08)
GFTLNSYGIS,VIYSDGRRTFYGDSVK,QRSAGTDDS,ND ND ND,2/9 (3.10)
GFTLNSYGCS,VMYSDGRRTFYGDSVK,GRAAGTKDS,ND ND ND,0/9
GFTLNSYGIS,VNYSDGRRKFYGDSSK,GRAAGTFDS,5.87 ND ND,2/9 (4.08)
GFTLNSYGIS,VIYSDGRDTFYGDSVK,GRAAGTFDI,4.20 3.94 ND,2/9 (4.60)
GFTLNSYGMS,VIYSDGRRTFYGDSVK,GRAGGTFDF,ND ND ND,0/9
GFTLNSYGIS,VCYSDGRRTPYGDSVK,GEAAGTFDS,2.20 ND 4.17,0/9
GFTLQSYGIS,VDYSDGRREFYGDSVK,GRAAGTFDS,ND ND ND,2/9 (3.70)
GFPLNSYGIS,VIYSDGERTFYGDSVK,GRAAGTFDS,0.84 0.99 0.94,3/9 (3.93)
GVTLNSYYIS,VIYSDGWRTFYGDSVK,GRAAGTFDS,ND ND ND,0/9
VFTLNSYGMS,VIYSDWRRTFYGDSVK,GRAAGTFDS,ND ND ND,2/9 (3.45)
GFTLNSYGIS,VEGSDGRRTFYGDSPK,GRAAGTFDS,ND ND ND,0/9
GFTLNSYDIS,VIASDGRRWFYGDSVK,GRAAGTFDS,5.71 ND 4.29,7/9 (4.17)
MFTENSYGIS,VIYSDGRRTFYGDSVK,GRAAGTFDS,ND ND ND,5/9 (4.91)
GFTLNSYGIS,VIYSDGRRTFYRDSVK,GMAAGDFDS,ND 3.29 ND,2/9 (4.74)

Again, the first 2 entries without any signal:

CDR-H1,CDR-H2,CDR-H3,"replicates, log10 nM",signal with controls
GFTLNSYGIS,VIYSDGRLTFYGDSVF,GQAAGTFDS,ND ND ND,0/9
LFTLNSYGII,VIYSLGRRTFYGDSVK,GRAAGTFDS,ND ND ND,0/9

Three control strains display no target. For library AAYL49, 15% of the pairings with them gave a signal, with a median of 4.06 and one signal in twenty below 2.83, so weak values seen in few replicates may be background. The control count says in how many pairings with the empty strains this scFv gave a signal, with their mean in brackets.